Experimental data from PMC3142473 (Journal of medicinal chemistry, 2008).

Tested on: Sprague–Dawley rats
Settings: 300 mg/kg ip

CC(C(O)c1ccc(O)cc1)N1CCC(Cc2ccccc2)CC1 (stereo not shown) [ifenprodil]
deaths: Three of the four animals in our study died
